Experimental findings from PMC6519732 (Journal of medicinal chemistry, 2019) are described below.

The target of one assay is T1, human recombinant HDAC6 (Homo sapiens, UniProt Q9UBN7).
T1 sequence (Q9UBN7 1-1215): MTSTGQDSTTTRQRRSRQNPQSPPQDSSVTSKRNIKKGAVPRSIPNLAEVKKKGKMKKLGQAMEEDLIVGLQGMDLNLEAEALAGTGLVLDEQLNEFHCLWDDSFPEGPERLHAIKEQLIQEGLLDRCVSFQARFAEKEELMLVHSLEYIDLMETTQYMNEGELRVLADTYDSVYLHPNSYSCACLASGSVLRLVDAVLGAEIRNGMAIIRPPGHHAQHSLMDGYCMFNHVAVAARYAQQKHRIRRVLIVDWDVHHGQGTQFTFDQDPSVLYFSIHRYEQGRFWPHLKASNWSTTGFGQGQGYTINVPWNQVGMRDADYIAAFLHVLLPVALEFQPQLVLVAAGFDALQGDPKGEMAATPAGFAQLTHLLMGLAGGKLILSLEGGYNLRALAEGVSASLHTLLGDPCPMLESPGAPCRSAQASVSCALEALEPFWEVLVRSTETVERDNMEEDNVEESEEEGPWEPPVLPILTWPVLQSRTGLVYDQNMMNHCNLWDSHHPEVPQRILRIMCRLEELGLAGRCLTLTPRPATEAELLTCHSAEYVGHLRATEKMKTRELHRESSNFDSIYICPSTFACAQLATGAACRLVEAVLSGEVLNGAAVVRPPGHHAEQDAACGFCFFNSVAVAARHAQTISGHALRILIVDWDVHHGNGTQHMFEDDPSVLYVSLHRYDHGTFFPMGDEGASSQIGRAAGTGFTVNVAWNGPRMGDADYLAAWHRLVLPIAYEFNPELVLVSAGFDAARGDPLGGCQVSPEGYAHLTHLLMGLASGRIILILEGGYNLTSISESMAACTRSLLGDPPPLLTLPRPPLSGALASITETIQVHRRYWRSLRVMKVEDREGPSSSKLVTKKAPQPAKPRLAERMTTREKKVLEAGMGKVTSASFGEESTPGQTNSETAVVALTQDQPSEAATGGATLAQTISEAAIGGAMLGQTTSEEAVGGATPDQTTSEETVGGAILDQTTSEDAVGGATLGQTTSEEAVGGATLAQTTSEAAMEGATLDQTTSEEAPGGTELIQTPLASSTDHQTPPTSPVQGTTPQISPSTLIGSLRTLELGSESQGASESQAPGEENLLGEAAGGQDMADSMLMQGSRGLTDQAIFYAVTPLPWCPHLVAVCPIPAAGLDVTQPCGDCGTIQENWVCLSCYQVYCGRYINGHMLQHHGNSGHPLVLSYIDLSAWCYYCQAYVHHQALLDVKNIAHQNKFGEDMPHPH
Type of assay: biochemical. The following applies: from IC50 in place of Kd, T = 310 K.

A further assay relates to MDA-MB-231 cells. The following applies: MDA-MB-231, 48 h, compared with all tested HDAC inhibitors.
In assay [1] the test system is Ac-α-tubulin in HL60 cells. Nature of the assay: Western blot of acetyl-α-tubulin in HL60 cells. As to conditions: 4 h, normalized to DMSO. Type of assay: cell-based.
Assay [2] deals with Ac-histone H3 in HL60 cells. Description: Western blot of acetyl-histone H3 in HL60 cells. Type of assay: cell-based. As to conditions: 4 h, normalized to DMSO.
The next assay relates to T24 cells. The following applies: T24, 48 h, compared with all tested HDAC inhibitors.

For the molecule `O=C(NO)c1ccc(CN2c3ccncc3Sc3ncccc32)cc1` [Compound 7n, 4-[(5H-Dipyrido[2,3-b:4’,3’-e][1,4]thiazin-5-yl)methyl]-N-hydroxybenzamide], on human recombinant HDAC6, the “LE, HDAC6 (ligand efficiency)” value is 0.45 (kcal/mol)/non-H-Atom.
For `O=C(CCCCCCC(=O)Nc1ccccc1)NO` [SAHA, suberoylanilide hydroxamic acid], the “apoptosis rate (in words)” value in the assay with MDA-MB-231 cells and in the assay with T24 cells was “highest apoptosis rates” in each case. The Ac-tubulin/GAPDH in assay [1] (0.1 μM) is recorded as 3.79; in assay [1] (1 μM) it was 9.97; in assay [1] (10 μM) it was 9.52. Besides, the Ac-H3/GAPDH in assay [2] (0.1 μM) is recorded as 1.52; in assay [2] (1 μM), 1.91; in assay [2] (10 μM), 2.80.
